According to patent publication US10179914B2, “CDC25A inhibitor for the treatment of drug resistant cancer or for the prevention of tumor relapse” (INSERM (INSTITUT NATIONAL DE LA SANTÉ ET DE LA RECHERCHE …, priority 2014, dated 2019):

System: MOLM-14 cells (FLT3-ITD positive)
Assay: Cell proliferation, trypan blue counting, MOLM-14
Type: cell-based, human
Conditions: 1 nM
Method: Cells were harvested each day and counted after trypan blue staining. The graphs represent three independent experiments.
Cell lines and reagents. […] Concerning MOLM-14 cell line, the presence of a monoallelic 21 bp FLT3-ITD mutation and of an MLL-containing ins(11; 9)(q23;p22p23) were verified (Hematology laboratory of Toulouse University Hospital, Prof E. Delabesse and Dr I. Luquet). KG1 and HL-60 (ACC-14 and ACC-3, DSMZ) cell lines were grown in Iscove's Modified Dulbecco's Medium (IMDM, Gibco) plus 20% FBS. All cells were grown in the presence of 100 units/ml of penicillin and streptomycin (Invitrogen) at 37° C. and 5% CO2.
siRNA. The MV4-11 cell line was transfected with the Amaxa nucleofection technology (Lonza, Koeln, Germany). […] Twenty-four or forty-eight hours after transfection, cells were counted (trypan blue staining), and western blotting was performed.

CC(C)(C)c1cc(NC(=O)Nc2ccc(-c3cn4c(n3)sc3cc(OCCN5CCOCC5)ccc34)cc2)no1 [AC220, quizartinib, reference compound]
cell death in MOLM-14: low levels of cell death
